The assay has as its target α-synuclein fibrils (Homo sapiens, UniProt P37840). As to the kind of experiment: ThT competitive binding assay with α-synuclein fibrils.

On to `COc1ccc2c(c1)Nc1ncc([N+](=O)[O-])cc1O2`, for which the IC50 – broadly, the concentration that inhibits the measured activity by half – turned out to be 72.9 nM. Further, the Ki (usually the dissociation constant of the complex between target and ligand, obtained from inhibition or displacement) (mean ± SEM, at least three experiments, Cheng-Prusoff from IC50) turned out to be 17.5 nM.

(Values after patent US20130315825A1, “TRICYCLIC HETEROAROMATIC COMPOUNDS AS ALPHA-SYNUCLEIN LIGANDS” (Washington University, priority 2012, published 2013).)
